Amino acid sequences for entries named in this document (tags omitted). Residues count along the entry.
UniProt O60674, 849-1124: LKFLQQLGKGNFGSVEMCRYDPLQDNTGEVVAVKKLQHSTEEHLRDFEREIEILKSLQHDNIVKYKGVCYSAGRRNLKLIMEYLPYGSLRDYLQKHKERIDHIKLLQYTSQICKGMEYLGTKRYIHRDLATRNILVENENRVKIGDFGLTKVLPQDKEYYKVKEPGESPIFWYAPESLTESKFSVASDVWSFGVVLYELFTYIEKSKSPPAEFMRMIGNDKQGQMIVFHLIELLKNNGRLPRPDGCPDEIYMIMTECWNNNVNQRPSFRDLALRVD

These compounds were tested against JAK2 (recombinant purified GST-tagged catalytic domain) (Homo sapiens (Human), UniProt O60674) (assay: biochemical).
`C[C@H]1C[C@H](C)N1[C@H]1CC[C@H](n2cc(C(N)=O)c(Nc3ccc(C(F)(F)F)cc3)n2)[C@@H](C#N)C1` (single isomer, unassigned) [Example 28-21, 1-{(1S,2S,4S or 1R,2R,4R)-2-cyano-4-[(2S,4S or 2R,4R)-2,4-dimethylazetidin-1-yl]cyclohexyl}-3-{[4-(trifluoromethyl)phenyl]amino}-1H-pyrazole-4-carboxamide] gave an IC50 of 335 nM. `C[C@H]1C[C@H](C)N1[C@@H]1CC[C@H](n2cc(C(N)=O)c(Nc3ccc(C(F)(F)F)cc3)n2)[C@@H](C#N)C1` (single isomer, unassigned) [Example 28-20, 1-{(1S,2S,4R or 1R,2R,4S)-2-cyano-4-[(2S,4S or 2R,4R)-2,4-dimethylazetidin-1-yl]cyclohexyl}-3-{[4-(trifluoromethyl)phenyl]amino}-1H-pyrazole-4-carboxamide] gave an IC50 of 355 nM. For `N#C[C@H]1CC(NCCO)CCC1n1cc(C(N)=O)c(Nc2ccc(S(=O)(=O)C(F)(F)F)cc2)n1` (mixture of isomers) [Example 27-15, 1-{(1S,2S and 1R,2R)-2-cyano-4-[(2-hydroxyethyl)amino]cyclohexyl}-3-({4-[(trifluoromethyl)sulfonyl]phenyl)amino)-l/f-pyrazolc-4-carboxamide], the IC50 was 11 nM. With `CN[C@H]1CCC(n2cc(C(N)=O)c(Nc3ccc(S(=O)(=O)C(F)(F)F)cc3)n2)[C@@H](C#N)C1` (mixture of isomers) [Example 27-9, 1-[(1S,2S,4S and 1R,2R,4R)-2-cyano-4-(methylamino)cyclohexyl]-3-({4-[(trifluoromethyl)sulfonyl]phenyl}amino)-1H-pyrazole-4-carboxamide] the IC50 was 51 nM. In the case of `CN(C)[C@H]1CC[C@H](n2cc(C(N)=O)c(Nc3ccc(OC(F)F)cc3)n2)[C@@H](C#N)C1` (single isomer, unassigned) [Example 28-104, 1-[(1S,2S,4S or 1R,2R,4R)-2-cyano-4-(dimethylamino)cyclohexyl]-3-{[4-(difluoromethoxy)phenyl]amino}-1H-pyrazole-4-carboxamide], the IC50 is reported as 13 nM. In the case of `COCC(C)N[C@H]1CCC(n2cc(C(N)=O)c(Nc3ccc(Cl)cc3)n2)[C@@H](C#N)C1` (single isomer, unassigned) [Example 28-238, 3-[(4-chlorophenyl)amino]-1-[(1S,2S,4S or 1R,2R,4R)-2-cyano-4-{[(1S)-2-methoxy-1-methylethyl]amino}cyclohexyl]-1H-pyrazole-4-carboxamide], the IC50 is reported as 38 nM. For `N#C[C@H]1C[C@H](O)CC[C@@H]1n1cc(C(N)=O)c(Nc2ccc(Cl)c(F)c2)n1` (single isomer, unassigned) [Example 25-3, 3-[(4-chloro-3-fluorophenyl)amino]-1-[(1S,2S,4R or 1R,2R,4S)-2-cyano-4-hydroxycyclohexyl]-1H-pyrazole-4-carboxamide], the IC50 was 26 nM. In the case of `COCC(C)(C)N(C)[C@H]1CCC(n2cc(C(N)=O)c(Nc3ccc(Cl)cc3)n2)[C@@H](C#N)C1` (single isomer, unassigned) [Example 28-234, 3-[(4-chlorophenyl)amino]-1-{(1S,2S,4S or 1R,2R,4R)-2-cyano-4-[(2-methoxy-1,1-dimethylethyl)(methyl)ami-no]cyclohexyl}-1H-pyrazole-4-carboxamide], the IC50 is reported as 63 nM. In the case of `CC(C)(c1ccc(Nc2nn([C@H]3CC[C@@](C)(O)C[C@@H]3C#N)cc2C(N)=O)cc1)C(O)C(F)(F)F` (single isomer, unassigned) [Example 32-2, 1-[(1S,2S,4R or 1R,2R,4S)-2-cyano-4-hydroxy-4-methylcyclohexyl]-3-{[4-(3,3,3-trifluoro-(2R or 2S)-hydroxy-1,1-dimethylpropyl)phenyl]amino}-1H-pyrazole-4-carboxamide], the IC50 is reported as 4 nM. In the case of `CN(CCC(F)(F)F)[C@@H]1CC[C@H](n2cc(C(N)=O)c(Nc3ccc(S(=O)(=O)C(F)(F)F)cc3)n2)[C@@H](C#N)C1` (single isomer, unassigned) [Example 28-170, 1-{(1S,2S,4R or 1R,2R,4S)-2-cyano-4-[methyl(3,3,3-trifluoropropyl)amino]cyclohexyl}-3-({4-[(trifluoromethyl)sulfonyl]phen-yl]amino)-1H-pyrazole-4-carboxamide], the IC50 is reported as 180 nM. Compound `N#C[C@H]1C[C@@](O)(C2CC2)CC[C@@H]1n1cc(C(N)=O)c(Nc2ccc(Cl)cc2)n1` (single isomer, unassigned) [Example 32-14, 3-[(4-chlorophenyl)amino]-1-[(1S,2S,4R or 1R,2R,4S)-2-cyano-4-cyclopropyl-4-hydroxycyclohexyl]-1H-pyrazole-4-carboxamide] has an IC50 of 73 nM. `N#C[C@H]1C[C@H](O)CCC1n1cc(C(N)=O)c(Nc2ccnc(F)c2)n1` (single isomer, unassigned) [Example 25-21, 1-[(1S,2S,4R or 1R,2R,4S)-2-cyano-4-hydroxycyclohexyl]-3-[(2-fluoropyridin-4-yl)amino]-1H-pyrazole-4-carboxamide] gave an IC50 of 11 nM. In the case of `C[C@]1(O)CC[C@H](n2cc(C(N)=O)c(Nc3ccc([C@@](C)(O)C(F)(F)F)cc3)n2)[C@@H](C#N)C1` (single isomer, unassigned) [Example 32-15, 1-[(1S,2S,4S or 1R,2R,4R)-2-cyano-4-hydroxy-4-methylcyclohexyl]-3-({4-[(1R or 1S)-2,2,2-trifluoro-1-hydroxy-1-methylethyl]phenyl}amino)-1H-pyrazole-4-carboxamide], the IC50 is reported as 1 nM. In the case of `N#C[C@H]1C[C@@H](N2CC(O)C2)CC[C@@H]1n1cc(C(N)=O)c(Nc2ccc(S(=O)(=O)C(F)(F)F)cc2)n1` (single isomer, unassigned) [Example 28-151, 1-[(1S,2S,4S or 1R,2R,4R)-2-cyano-4-(3-hydroxyazetidin-1-yl)cyclohexyl]-3-({4-[(trifluoro-methyl)sulfonyl]phenyl}amino)-1H-pyrazole-4-carboxamide], the IC50 is reported as 1 nM. `N#C[C@H]1C[C@@H](NC2CCOCC2)CCC1n1cc(C(N)=O)c(Nc2ccc(Cl)cc2)n1` (single isomer, unassigned) [Example 28-218, 3-[(4-chlorophenyl)amino]-1-[(1S,2S,4S or 1R,2R,4R)-2-cyano-4-(tetrahydro-2H-pyran-4-ylamino)cyclohexyl]-1H-pyrazole-4-carboxamide] showed an IC50 of 102 nM. With `N#C[C@@H]1CCCC[C@@H]1n1cc(C(N)=O)c(Nc2ccc(F)nc2)n1` (racemic) [Example 17-24, 1-[(1S,2R and 1R,2S)-2-cyanocyclohexyl]-3-[(6-fluoropyridin-3-yl)amino]-1H-pyrazole-4-carboxamide] the IC50 was 75 nM. With `C[C@](O)(c1ccc(Nc2nn([C@H]3CCCC[C@@H]3C#N)cc2C(N)=O)cn1)C(F)(F)F` (single isomer, unassigned) [Example 17-34, 1-[(1S,2S or 1R,2R)-2-cyanocyclohexyl]-3-({6-[(1S or 1R)-2,2,2-trifluoro-1-hydroxy-1-methylethyl]pyridin-3-yl}amino)-1H-pyrazole-4-carboxamide] the IC50 was 11 nM. With `CN(CCC(F)(F)F)[C@H]1CC[C@H](n2cc(C(N)=O)c(Nc3ccc(S(=O)(=O)C(F)(F)F)cc3)n2)[C@@H](C#N)C1` (single isomer, unassigned) [Example 28-171, 1-{(1S,2S,4S or 1R,2R,4R)-2-cyano-4-[methyl(3,3,3-tri-fluoropropyl)amino]cyclohexyl}-3-({4-[(trifluoromethyl)sulfonyl]phen-yl}amino)-1H-pyrazole-4-carboxamide] the IC50 was 31 nM. With `C[C@@]1(O)CC[C@H](n2cc(C(N)=O)c(Nc3ccc(Cl)cc3)n2)[C@@H](C#N)C1` (single isomer, unassigned) [Example 32-13, 3-[(4-chlorophenyl)amino]-1-[(1S,2S,4R or 1R,2R,4S)-2-cyano-4-hydroxy-4-methylcyclohexyl]-1H-pyrazole-4-carboxamide] the IC50 was 17 nM. In the case of `N#C[C@H]1CCCCC1n1cc(C(N)=O)c(Nc2ccc(S(=O)(=O)CC(F)(F)F)cc2)n1` (mixture of isomers) [Example 17-12, 1-[(1S,2S and 1R,2R)-2-cyanocyclohexyl]-3-({4-[(2,2,2-trifluoroethyl)sulfonyl]phenyl}amino)-1H-pyrazole-4-carboxamide], the IC50 is reported as 5 nM. With `CN(C)[C@@H]1CC[C@H](n2cc(C(N)=O)c(Nc3ccc(OC(F)F)cc3)n2)[C@@H](C#N)C1` (single isomer, unassigned) [Example 28-95, 1-[(1S,2S,4R or 1R,2R,4S)-2-cyano-4-(dimethylamino)cyclohexyl]-3-{[4-(difluoromethoxy)phenyl]amino}-1H-pyrazole-4-carboxamide] the IC50 was 32 nM. `CC(C)NC(=O)O[C@@H]1CCC(n2cc(C(N)=O)c(Nc3ccc(F)cc3)n2)[C@@H](C#N)C1` (mixture of isomers) [Example 34-4, (1R,3S,4S and 1S,3R,4R)-4-{4-carbamoyl-3-[(4-fluorophenyl)amino]-1H-pyrazol-1-yl}-3-cyanocyclohexyl propan-2-ylcarbamate] showed an IC50 of 19 nM. `C[C@@]1(O)CC[C@H](n2cc(C(N)=O)c(Nc3ccc([C@@](C)(O)C(F)(F)F)cc3)n2)[C@@H](C#N)C1` (single isomer, unassigned) [Example 32-11, 1-[(1S,2S,4R or 1R,2R,4S)-2-cyano-4-hydroxy-4-methylcyclohexyl]-3-({4-[(1R or 1S)-2,2,2-trifluoro-1-hydroxy-1-methylethyl]phenyl}amino)-1H-pyrazole-4-carboxamide] was tested, and the IC50 was 4 nM. `N#C[C@H]1C[C@@H](N2CC(F)C2)CC[C@@H]1n1cc(C(N)=O)c(Nc2ccc(C(F)(F)F)cc2)n1` (single isomer, unassigned) [Example 28-105, 1-[(1S,2S,4S or 1R,2R,4R)-2-cyano-4-(3-fluoroazetidin-1-yl)cyclohexyl]-3-{[4-(trifluoromethyl)phenyl]amino}-1H-pyrazole-4-carboxamide] was tested, and the IC50 was 30 nM. `N#C[C@H]1C[C@H](N2CCC2)CC[C@@H]1n1cc(C(N)=O)c(Nc2ccc(CC(F)(F)F)cc2)n1` (single isomer, unassigned) [Example 28-53, 1-[(1S,2S,4R or 1R,2R,4S)-4-azetidin-1-yl-2-cyanocyclohexyl]-3-{[4-(2,2,2-trifluoroethyl)phenyl]amino}-1H-pyrazole-4-carboxamide] showed an IC50 of 8 nM. Work on `N#C[C@H]1C[C@H](O)CCC1n1cc(C(N)=O)c(Nc2ccnc(F)c2)n1` (single isomer, unassigned) [Example 25-25, 1-[(1S,2S,4R or 1R,2R,4S)-2-cyano-4-hydroxycyclohexyl]-3-[2-fluoropyridin-4-yl)amino]-1H-pyrazole-4-carboxamide] yielded an IC50 of 210 nM.
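Also: biochemical JAK kinase assay with HTRF detection.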
